Measurements reported in patent US9359392B2, “Dendrimer scaffolds for pharmaceutical use” (Victoria Link Limited, priority 2012, dated 2016).

Test: Water solubility of the gadolinium complex
Format: physicochemical
Excerpt: 34-Gd is water soluble. […] Therefore, an alternative cation is required. Gd-DPTA is the active ingredient in Magnevist, a commercial MRI contrast agent. In Magnevist, meglumine is used to make Gd-DPTA water soluble.

- water solubility: water soluble
Substance: Gadolinium complex of 2-aminoacetic acid(N,N):{6-aza-3-oxahexanyl(6,6)}2x^G1: (carboxymethyl)4-cascadane [34-Gd]
